Earlier results in US7632832B2, “CGRP receptor antagonists” (Merck & Co., Inc., priority 2005, dated 2009).

The chains behind the UniProt entries cited, without tags or fusion partners. Residues count along the entry.
UniProt Q63118, 24-464: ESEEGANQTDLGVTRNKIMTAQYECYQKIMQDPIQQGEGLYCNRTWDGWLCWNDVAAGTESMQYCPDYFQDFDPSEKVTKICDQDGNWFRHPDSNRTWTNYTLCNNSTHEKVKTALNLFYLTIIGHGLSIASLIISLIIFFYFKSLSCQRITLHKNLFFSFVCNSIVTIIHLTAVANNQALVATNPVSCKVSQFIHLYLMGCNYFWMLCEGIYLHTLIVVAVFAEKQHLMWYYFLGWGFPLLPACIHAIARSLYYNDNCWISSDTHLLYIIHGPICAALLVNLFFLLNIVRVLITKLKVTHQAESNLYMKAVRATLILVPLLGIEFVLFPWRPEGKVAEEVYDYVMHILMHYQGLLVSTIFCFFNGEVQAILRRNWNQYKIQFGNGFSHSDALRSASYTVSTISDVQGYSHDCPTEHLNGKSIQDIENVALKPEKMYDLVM
UniProt Q9JJ74, 27-148: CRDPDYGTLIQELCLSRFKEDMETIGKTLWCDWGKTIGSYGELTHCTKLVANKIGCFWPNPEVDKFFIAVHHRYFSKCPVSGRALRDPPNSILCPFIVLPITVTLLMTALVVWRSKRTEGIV

What was measured:
CGRP [1] = target: T1, CGRP (Rattus norvegicus, UniProt Q63118+Q9JJ74); conditions: rats, electrical stimulation of the dura mater, prior administration (Williamson et al. 1997)
T1 construct: host or cells: living rat (dural / facial vasculature)

CGRP [2] = target: T1, CGRP; conditions: trigeminal ganglion stimulation (Escott et al. 1995)

## CGRP(8-37)
CGRP [1]
  effect on increased diameter of the middle meningeal artery: blocked
CGRP [2]
  effect on increased facial blood flow: inhibited
